In the test the target is Human PTH (7-84) (human). As to the kind of experiment: ELISA on coated peptide; B cell supernatant.

B1: anti-PTH mAb 262 (antibody, IgG2, V domains shown)
VH: EVQLVESGGGLVKPGGSLRLSCAASGFTFSNAWMSWVRQAPGKGLEWVGRIKSKTDGGTTDYAAPVKGRFNISRDDSKNTLYLQMNSLKTEDTAVYYCTTGATFDSWGQGTLVTVSS
VL: DIVMTQSPLSLPVTPGEPASISCRSSQSLLHSNGYKYLDWFLQKPGQSPQLLIYLGSIRASGVPDRFSGSGSGTDFTLKISRVEAEDVGVYYCMQALQTPWTFGQGTKVEIK
With B1, the OD stood at 0.07 OD450.

These data come from patent US20060062783A1.
